# pIC50: −log10 of the molar value.
# Target: Amine oxidase [flavin-containing] B (Homo sapiens, UniProt P27338)
# Assay: Inhibition of human MAO B by FLINT assay
compound,measurement,value
CCNC(=O)C[C@@H]1N=C(c2ccc(Cl)cc2)c2cc(OC)ccc2-n2c(C)nnc21 [MOLIBRESIB],pIC50,4.60
